Results from PubChem BioAssay (Tox21).
Only results without a clear call are listed here; the source files them as inconclusive. Unless noted, calls follow the shape of the full dose curve.

Chains of the proteins cited; added tags and fusions are not shown. Lines headed by an entry give the natural chain unless they say otherwise; changes in a name come on top.
UniProt Q969F8, whole entry, looked up: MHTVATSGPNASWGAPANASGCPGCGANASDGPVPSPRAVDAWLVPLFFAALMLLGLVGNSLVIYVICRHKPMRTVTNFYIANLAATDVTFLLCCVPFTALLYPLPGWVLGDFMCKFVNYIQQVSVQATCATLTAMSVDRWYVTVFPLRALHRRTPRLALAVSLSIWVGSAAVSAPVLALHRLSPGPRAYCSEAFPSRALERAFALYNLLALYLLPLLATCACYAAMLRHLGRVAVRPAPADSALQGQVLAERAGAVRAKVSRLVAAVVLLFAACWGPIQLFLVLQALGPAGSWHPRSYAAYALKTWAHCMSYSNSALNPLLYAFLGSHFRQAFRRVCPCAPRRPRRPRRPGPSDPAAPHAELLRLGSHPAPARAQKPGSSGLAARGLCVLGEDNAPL
UniProt P11229: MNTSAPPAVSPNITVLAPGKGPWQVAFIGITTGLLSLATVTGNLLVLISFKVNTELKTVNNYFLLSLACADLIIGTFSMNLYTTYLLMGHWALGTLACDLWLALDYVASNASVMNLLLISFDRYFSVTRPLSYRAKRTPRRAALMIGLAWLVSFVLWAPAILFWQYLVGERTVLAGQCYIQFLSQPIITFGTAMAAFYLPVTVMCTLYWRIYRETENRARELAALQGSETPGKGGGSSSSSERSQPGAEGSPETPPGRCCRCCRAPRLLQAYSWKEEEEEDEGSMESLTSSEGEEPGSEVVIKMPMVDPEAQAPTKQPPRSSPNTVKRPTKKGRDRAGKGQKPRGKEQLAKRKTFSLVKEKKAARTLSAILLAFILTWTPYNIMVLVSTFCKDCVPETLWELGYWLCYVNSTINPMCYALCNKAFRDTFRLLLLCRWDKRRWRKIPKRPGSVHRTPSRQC
UniProt P14416, whole entry, looked up: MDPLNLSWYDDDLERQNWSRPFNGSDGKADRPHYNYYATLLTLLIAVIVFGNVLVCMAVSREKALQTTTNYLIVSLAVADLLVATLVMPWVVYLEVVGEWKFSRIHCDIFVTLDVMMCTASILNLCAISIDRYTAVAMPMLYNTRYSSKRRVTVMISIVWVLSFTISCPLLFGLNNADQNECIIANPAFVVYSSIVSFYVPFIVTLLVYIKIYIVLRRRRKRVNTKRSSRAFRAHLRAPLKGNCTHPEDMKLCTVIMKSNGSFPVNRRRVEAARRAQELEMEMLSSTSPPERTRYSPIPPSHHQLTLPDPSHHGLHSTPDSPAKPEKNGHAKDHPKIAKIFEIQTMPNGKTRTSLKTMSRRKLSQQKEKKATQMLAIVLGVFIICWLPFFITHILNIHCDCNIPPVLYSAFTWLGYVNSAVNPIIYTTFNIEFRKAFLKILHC

Key:
[1] = Nuclear factor erythroid 2-related factor 2/antioxidant responsive element (Nrf2/ARE) small molecule agonists: luciferase reporter gene qHTS assay in human keratinocytes (AID 1919969); conditions: KeratinoSens HaCaT ARE-luciferase, luminescence, 24 h; also: potency is read from the fitted curve at half-maximal effect; nearly all actives have a fitted effect of over 35% in size
Description: National Center for Advancing Translational Sciences [NCATS]
Division of Preclinical Innovation [DPI]
U.S. Environmental Protection Agency [EPA]
National Institutes of Environmental Health Sciences [NIEHS]
National Toxicology Program [NTP]
U.S. Food and Drug Administration [FDA]
Oxidative stress has been implicated in the pathogenesis of a variety of diseases ranging from cancer to neurodegeneration. The antioxidant response element (ARE) signaling pathway plays an important role in the amelioration of oxidative stress. The KeratinoSens (Givaudan, Switzerland) is an in vitro test method which quantifies luciferase induction as a measure of activation of Keap1-Nrf2-antioxidationt/electrophile response element (ARE) dependant pathway in HaCaT human keratinocytes stably transfected with a selectable plasmid. […] The activation of the report gene under culture conditions can be detected by ONE-Glo Luciferase Assay System (Promega, Madison, WI). […]
HaCaT derived cell line KeratinoSens were dispensed at 1,500 cells/5uL/well in 1536-well white wall/solid bottom plates using a Multidrop Combi (ThermoFisher Scientific, Waltham, MA) dispenser. […] The plates were incubated at 37 C/5% CO2 for 23 h, followed by addition of 1uL/well of CellTiter-Fluor reagent into the assay plates using a Flying Reagent Dispenser (Aurora Discovery, San Diego, CA) for cell viability readout that measures cytotoxicity. […]

[2] = biological target: KiSS-1 receptor (Homo sapiens) (UniProt Q969F8); experiment: Human kisspeptin (KISS1R) small molecule agonists, calcium flux assay in KISS1R-HEK293 cells (AID 1920064; active = well fitted activation curve with a large enough effect in the repeat runs; inconclusive = weak or mixed curves; also: potency is read from the fitted curve at half-maximal effect); conditions: KISS1R-HEK293, calcium flux fluorescence, agonist
In short: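 Cell line: HEK293, stable human KISS1R. Dye loading 1 h at 37 C after 18 h culture. Read: kinetic fluorescence, 480/540 nm, 3 min at 1 s intervals.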

[3] = G protein-coupled receptor (GPCR) small molecule agonists, calcium flux assay: HEK293 wild type cell line counter screen (AID 1920065); conditions: HEK293 WT calcium flux, fluorescence, agonist mode; also: potency is read from the fitted curve at half-maximal effect
In short: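 Tox21 10K compounds, 15 concentrations each in triplicate, pin-transferred in DMSO onto dye-loaded cells; kinetic read at 480/540 nm for 3 min, 1 s intervals.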

[4] = biological target: Muscarinic acetylcholine receptor M1 (Homo sapiens) (UniProt P11229); experiment: Cholinergic receptor muscarinic 1 (CHRM1) small molecule agonists, cell-based qHTS assay (AID 1963589); conditions: CHRM1-CHO cells, agonist mode, calcium flux fluorescence; also: potency is read from the fitted curve at half-maximal effect; nearly all actives have a fitted effect of over 35% in size
In short: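 Homogeneous fluorescence calcium flux, agonist mode. Human M1-expressing CHO cells; compound dosed at 15 concentrations, three independent runs; signal sampled every 1 sec.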

[5] = cAMP Responsive Elements (CRE) small molecule agonists, cell-based qHTS assay (AID 1963590); conditions: CRE-bla HEK293T, beta-lactamase FRET ratio, 3 h; also: potency is read from the fitted curve at half-maximal effect
In short: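 HEK 293T cells stably bearing CRE-bla were plated at 2,000 cells per well and rested 18 h. Compounds, positive controls or DMSO were added for 3 h at 37 C. LiveBLAzer B/G substrate was then loaded for 2 h at room temperature.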

[6] = cAMP Responsive Elements (CRE) small molecule antagonists, cell-based qHTS assay (AID 1963591; active = well fitted inhibition curve with a large enough effect in the signal ratio in the repeat runs, not every such curve was filed as active; inconclusive = weak or mixed curves, or effect the other way; the % refers to the signal ratio; also: potency is read from the fitted curve at half-maximal effect; as to activity change, negative = inhibition: % is scaled to controls: 0 for no effect and ±100 for the full control effect); conditions: CRE-bla HEK293T, beta-lactamase FRET ratio; activity change, negative = inhibition: at 92.4 µM (top of the series)
In short: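 First, CRE-bla HEK293T cells settled 18 h at 37 C. Next, compound and 0.25 uM final NKH477 were applied for 3 h. Last, LiveBLAzer B/G substrate was loaded for 2 h at room temperature.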

[7] = p53 small molecule agonists, cell-based qHTS assay with human liver microsomes: qHTS cell viability counter screen (AID 1963579); conditions: p53RE-bla HCT-116 viability, ATP luminescence, 16 h, HLM; also: potency is read from the fitted curve at half-maximal effect; nearly all actives have a fitted effect of over 45% in size
In short: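 p53RE-bla cells, 4,000/well, dosed 5 hours after plating, with human liver microsomes (0.5 mg/mL final) plus NADPH (0.5 mg/mL final), 16 hours at 37 C. Viability read as CellTiter-Glo luminescence after 30 min at room temperature.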

[8] = p53 small molecule agonists, cell-based qHTS assay with rat liver microsomes: qHTS cell viability counter screen (AID 1963580); conditions: p53RE-bla HCT-116 + rat microsomes, ATP viability, 16 h; also: potency is read from the fitted curve at half-maximal effect; nearly all actives have a fitted effect of over 45% in size
In short: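 Counter screen for cytotoxicity under metabolic activation: rat liver microsomes and NADPH, 0.5 mg/mL final each, added with compounds to p53RE-bla HCT-116 cells; 16 h at 37 C, then ATP luminescence read.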

[9] = biological target: Beta-2 adrenergic receptor (Homo sapiens) (UniProt P07550); experiment: Adrenergic beta2 receptor (ADRB2) small molecule antagonists, cell-based qHTS assay (AID 1963592); conditions: CHO-ADRB2 cells, isoproterenol-stimulated cAMP HTRF ratio, 0.5 h; also: potency is read from the fitted curve at half-maximal effect; nearly all actives have a fitted effect of over 50% in size
In short: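 Assay format: CHO-ADRB2 cells, 18-20hr seeding at 37C/5% CO2, then compound plus 1nM isoproterenol agonist mix for 0.5hr RT. Homogeneous time-resolved fluorescence cAMP detection after 1hr, expressed as 665/615 nm ratio.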

[10] = biological target: D(2) dopamine receptor (Homo sapiens) (UniProt P14416); experiment: Dopamine D2 receptor (DRD2) small molecule antagonists, cell-based qHTS assay (AID 1963595; active = well fitted inhibition curve with a large enough effect in the signal ratio in the repeat runs, with a control signal flat; inconclusive = weak or mixed curves, or effect the other way; the % refers to the signal ratio; also: potency is read from the fitted curve at half-maximal effect; as to activity change, negative = inhibition: % is scaled to controls: 0 for no effect and ±100 for the full control effect); conditions: HEK293-DRD2 cAMP HTRF antagonist mode; activity change, negative = inhibition: at 92.4 µM (top of the series)
In short: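 Antagonist mode in DRD2-HEK293 cells: after compound addition with 0.1 mM Ro20-1724, cells received quinpirole (12 nM) and NKH477 (200 nM) for 30 min at room temperature; HTRF cAMP read after 1 h detection.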

[11] = biological target: D(2) dopamine receptor (Homo sapiens) (UniProt P14416); experiment: Dopamine D2 receptor (DRD2) small molecule agonists, cell-based qHTS assay (AID 1963594); conditions: HEK293-DRD2 cAMP HTRF, agonist mode, 30 min; at 92.4 µM (top of the series); also: % is scaled to controls: 0 for no effect and ±100 for the full control effect; nearly all actives have a fitted effect of over 35% in size
In short: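 HEK293 cells stably expressing DRD2 were cultured 24 h at 37 C, then given Ro20-1724 (0.1 mM final) and compounds for 10 min at room temperature. NKH477 (200nM) was then added for 30 min. cAMP was read by HTRF.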

O=[P+](Oc1ccccc1)Oc1ccccc1
Potency [1]: inconclusive: 27.1 µM

O=[As]c1ccccc1 (stereo unspecified)
Potency [2]: inconclusive: 54.9 µM
Potency [3]: inconclusive: 43.6 µM
Potency [4]: inconclusive: 49 µM
Potency [5]: inconclusive: 3.06 µM
Potency [6]: inconclusive: 3.06 µM

O=[p+]1oc2ccccc2c2ccccc21 (stereo unspecified)
Potency [7]: inconclusive: 51.1 µM

Cc1cc([N+](=O)[O-])cc([N+](=O)[O-])c1O
Potency [7]: inconclusive: 16.2 µM
Potency [8]: inconclusive: 0.408 µM
Potency [9]: inconclusive: 61.1 µM
activity change, negative = inhibition [10]: inconclusive: 35.9%

N#CSc1ccc([N+](=O)[O-])cc1[N+](=O)[O-]
Potency [8]: inconclusive: 45.8 µM

ClP(Cl)c1ccccc1
activity change, negative = inhibition [6]: inconclusive: 1.53%

O=C1C2CC=CCC2C(=O)N1SC(Cl)(Cl)C(Cl)Cl (stereo unspecified)
Potency [9]: inconclusive: 4.86 µM

CN(C(=O)Cc1cccc2occc12)[C@H]1CC[C@@]2(CCCO2)C[C@@H]1N1CCCC1
activation [11]: inconclusive: -23.2%

NC(=O)Nc1ccc([As](=O)(O)O)cc1
Potency [10]: inconclusive: 68.5 µM
